≈ marks a conversion by molar mass, not a printed value.
System: LoVo-Doxo-resistant (LoVo/DX) cells
Conditions: 4 hr treatment

## COc1cccc2c1C(=O)c1c(O)c3c(c(O)c1C2=O)C[C@@](O)(C(=O)COC1(OCC(=O)O)CCCCC1)C[C@@H]3O[C@H]1C[C@H](N2CCO[C@H](OC)C2)[C@H](O)[C@H](C)O1 [Compound 3', 14-O-(1-carboxymethyloxy-cyclohexyl)-3'-deamino-3'-[2(S)-methoxy-4-morpholinyl]doxorubicin]
LoVo/DX vs LoVo
  R.I. = Resistance Index = (IC50 LoVo/DX)/(IC50 LoVo): 3
LoVo/DX
  ID50 (IC50, concentration inhibiting by 50% colony growth), LoVo/DX: 745 ng/mL (≈ 0.931 µM)

Reference: patent publication US5387578A (priority 1990, dated 1995)
